This note sets out measurements from ChEMBL document CHEMBL1139269, “Stereoselective inhibition of serotonin re-uptake and phosphodiesterase by dual inhibitors as potential agents for depression” (Bioorg Med Chem, 2009).

Sequences of proteins named here, by UniProt entry; tags and fusion partners are left off. A change or cut given only in a name is not applied to a line headed by its entry.
UniProt Q08499: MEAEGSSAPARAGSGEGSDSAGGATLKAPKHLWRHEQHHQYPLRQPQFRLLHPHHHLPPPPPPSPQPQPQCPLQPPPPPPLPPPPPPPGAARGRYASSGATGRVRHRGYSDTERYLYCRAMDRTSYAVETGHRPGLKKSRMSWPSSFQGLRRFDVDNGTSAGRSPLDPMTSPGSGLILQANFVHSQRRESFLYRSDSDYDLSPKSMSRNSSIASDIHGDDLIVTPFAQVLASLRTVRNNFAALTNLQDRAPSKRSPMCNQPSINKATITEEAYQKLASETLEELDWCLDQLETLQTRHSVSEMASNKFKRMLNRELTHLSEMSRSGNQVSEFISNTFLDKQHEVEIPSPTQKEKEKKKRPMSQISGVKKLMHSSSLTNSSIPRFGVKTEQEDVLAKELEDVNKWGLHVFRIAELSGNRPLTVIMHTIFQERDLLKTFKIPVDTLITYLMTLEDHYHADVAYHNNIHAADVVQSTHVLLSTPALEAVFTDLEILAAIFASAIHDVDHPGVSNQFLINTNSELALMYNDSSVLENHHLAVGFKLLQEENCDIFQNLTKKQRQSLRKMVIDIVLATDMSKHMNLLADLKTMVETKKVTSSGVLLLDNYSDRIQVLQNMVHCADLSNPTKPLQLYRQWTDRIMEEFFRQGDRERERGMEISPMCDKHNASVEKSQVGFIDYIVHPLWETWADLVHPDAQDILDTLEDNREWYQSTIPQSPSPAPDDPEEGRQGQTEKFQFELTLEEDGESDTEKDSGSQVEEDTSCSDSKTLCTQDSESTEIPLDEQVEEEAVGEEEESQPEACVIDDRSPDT

The assay concerns the target 3',5'-cyclic-AMP phosphodiesterase 4D (Homo sapiens, UniProt Q08499). The experiment in a line: Inhibition of PDE4D2 by rapid fluorescence based assay.

On to `COc1ccc(C2=NN(CCCCCBr)C(=O)C3CC=CCC23)cc1OC` (stereo unspecified), for which the IC50 worked out at 2.3 nM.
